pKi: −log10 of the molar value.
Molecular target: UDPGT1A1 (Homo sapiens, UniProt P22309)
Experiment: Inhibition of bilirubin glucuronidation by UDPGT
Type: biochemical
Conditions: read-out: Apparent Ki; Table 4; bilirubin 0.1 mM as substrate
From the text: UDP-glucuronosyltransferase 1A1 isozenzyme (Cat. #U7254), uridine-5′-diphosphoglucuronic acid (UDPGA, #U5625), bilirubin (B), naringenin (N5893), octyl gallate (#48700) and quercetin (Q0125) were purchased from SigmaAldrich (St. Louis, Mo.). Bilirubin dimethyl ester (#B612-9), biliverdin dimethyl ester (#B610-9), biliverdin hydrocholoride (#B655-9), mesobilirubin (#M588-9), urobilin hydrochloride (#U590-1), and stercobilin hydrochloride (#S594-9) were purchased from Frontier Scientific Inc. (Logan, Utah).
The enzyme activity assay method was based on those of Adlard and Lathe (Biochem. J., 1970, 119:437-445). Incubation mixtures (total vol. 1.25 ml, pH 7.9) were prepared in tubes kept in ice and had the following composition: bilirubin (0.1 mM), UDP-glucuronic acid (0.25 mM), serum (5.8%, v/v), Mg2+ (5.0 mM), microsomal preparation (0.5-1.5 mg of protein), 10 mM tris-0.14 M KCl (pH 8.0), and 10% (v/v) dimethylsulphoxide. Incubation (10 min, 37° C.) was carried out with shaking (100 cycles/min). After incubation, tubes were placed in ice-water (5 min) and direct-reacting bilirubin was determined. All incubations were done in duplicate. Enzyme activity was expressed as μg of bilirubin conjugated/h per mg of protein. Differences from controls of more than 10% were regarded as significant.

By UniProt entry, the sequences of proteins in these tests, tags left out. Residues count along the entry.
UniProt P22309, 26-533 limits assumed: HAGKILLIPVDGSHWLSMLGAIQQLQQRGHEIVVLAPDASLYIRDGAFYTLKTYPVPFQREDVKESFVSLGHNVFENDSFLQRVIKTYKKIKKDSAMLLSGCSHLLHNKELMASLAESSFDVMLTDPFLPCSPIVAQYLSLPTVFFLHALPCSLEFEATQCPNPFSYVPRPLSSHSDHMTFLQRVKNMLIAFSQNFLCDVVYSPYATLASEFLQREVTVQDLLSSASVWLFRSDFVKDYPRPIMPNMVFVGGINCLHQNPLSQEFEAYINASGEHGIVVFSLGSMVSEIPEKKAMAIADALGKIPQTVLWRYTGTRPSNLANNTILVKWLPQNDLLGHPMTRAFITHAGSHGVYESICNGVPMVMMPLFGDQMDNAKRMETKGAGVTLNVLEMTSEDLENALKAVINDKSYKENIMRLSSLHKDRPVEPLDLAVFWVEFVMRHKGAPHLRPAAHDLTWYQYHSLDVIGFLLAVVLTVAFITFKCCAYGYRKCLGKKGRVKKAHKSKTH

For `O=c1c(O)c(-c2ccc(O)c(O)c2)oc2cc(O)cc(O)c12`, the pKi was 5.35.
